Experiment: clinical
Conditions: human, in vivo, po, 450 mg

## CO[C@H]1/C=C/O[C@@]2(C)Oc3c(C)c(O)c4c(O)c(c(/C=N/N5CCN(C)CC5)c(O)c4c3C2=O)NC(=O)/C(C)=C\C=C\[C@H](C)[C@H](O)[C@@H](C)[C@@H](O)[C@@H](C)[C@H](OC(C)=O)[C@@H]1C [RIFAMPIN]
  Cmax: 10.5 µg/mL
